Measurements: publication PMC8903829 (eLife, 2022)

Sequences of proteins named here, by UniProt entry; tags and fusion partners are left off.
UniProt Q14524, whole entry: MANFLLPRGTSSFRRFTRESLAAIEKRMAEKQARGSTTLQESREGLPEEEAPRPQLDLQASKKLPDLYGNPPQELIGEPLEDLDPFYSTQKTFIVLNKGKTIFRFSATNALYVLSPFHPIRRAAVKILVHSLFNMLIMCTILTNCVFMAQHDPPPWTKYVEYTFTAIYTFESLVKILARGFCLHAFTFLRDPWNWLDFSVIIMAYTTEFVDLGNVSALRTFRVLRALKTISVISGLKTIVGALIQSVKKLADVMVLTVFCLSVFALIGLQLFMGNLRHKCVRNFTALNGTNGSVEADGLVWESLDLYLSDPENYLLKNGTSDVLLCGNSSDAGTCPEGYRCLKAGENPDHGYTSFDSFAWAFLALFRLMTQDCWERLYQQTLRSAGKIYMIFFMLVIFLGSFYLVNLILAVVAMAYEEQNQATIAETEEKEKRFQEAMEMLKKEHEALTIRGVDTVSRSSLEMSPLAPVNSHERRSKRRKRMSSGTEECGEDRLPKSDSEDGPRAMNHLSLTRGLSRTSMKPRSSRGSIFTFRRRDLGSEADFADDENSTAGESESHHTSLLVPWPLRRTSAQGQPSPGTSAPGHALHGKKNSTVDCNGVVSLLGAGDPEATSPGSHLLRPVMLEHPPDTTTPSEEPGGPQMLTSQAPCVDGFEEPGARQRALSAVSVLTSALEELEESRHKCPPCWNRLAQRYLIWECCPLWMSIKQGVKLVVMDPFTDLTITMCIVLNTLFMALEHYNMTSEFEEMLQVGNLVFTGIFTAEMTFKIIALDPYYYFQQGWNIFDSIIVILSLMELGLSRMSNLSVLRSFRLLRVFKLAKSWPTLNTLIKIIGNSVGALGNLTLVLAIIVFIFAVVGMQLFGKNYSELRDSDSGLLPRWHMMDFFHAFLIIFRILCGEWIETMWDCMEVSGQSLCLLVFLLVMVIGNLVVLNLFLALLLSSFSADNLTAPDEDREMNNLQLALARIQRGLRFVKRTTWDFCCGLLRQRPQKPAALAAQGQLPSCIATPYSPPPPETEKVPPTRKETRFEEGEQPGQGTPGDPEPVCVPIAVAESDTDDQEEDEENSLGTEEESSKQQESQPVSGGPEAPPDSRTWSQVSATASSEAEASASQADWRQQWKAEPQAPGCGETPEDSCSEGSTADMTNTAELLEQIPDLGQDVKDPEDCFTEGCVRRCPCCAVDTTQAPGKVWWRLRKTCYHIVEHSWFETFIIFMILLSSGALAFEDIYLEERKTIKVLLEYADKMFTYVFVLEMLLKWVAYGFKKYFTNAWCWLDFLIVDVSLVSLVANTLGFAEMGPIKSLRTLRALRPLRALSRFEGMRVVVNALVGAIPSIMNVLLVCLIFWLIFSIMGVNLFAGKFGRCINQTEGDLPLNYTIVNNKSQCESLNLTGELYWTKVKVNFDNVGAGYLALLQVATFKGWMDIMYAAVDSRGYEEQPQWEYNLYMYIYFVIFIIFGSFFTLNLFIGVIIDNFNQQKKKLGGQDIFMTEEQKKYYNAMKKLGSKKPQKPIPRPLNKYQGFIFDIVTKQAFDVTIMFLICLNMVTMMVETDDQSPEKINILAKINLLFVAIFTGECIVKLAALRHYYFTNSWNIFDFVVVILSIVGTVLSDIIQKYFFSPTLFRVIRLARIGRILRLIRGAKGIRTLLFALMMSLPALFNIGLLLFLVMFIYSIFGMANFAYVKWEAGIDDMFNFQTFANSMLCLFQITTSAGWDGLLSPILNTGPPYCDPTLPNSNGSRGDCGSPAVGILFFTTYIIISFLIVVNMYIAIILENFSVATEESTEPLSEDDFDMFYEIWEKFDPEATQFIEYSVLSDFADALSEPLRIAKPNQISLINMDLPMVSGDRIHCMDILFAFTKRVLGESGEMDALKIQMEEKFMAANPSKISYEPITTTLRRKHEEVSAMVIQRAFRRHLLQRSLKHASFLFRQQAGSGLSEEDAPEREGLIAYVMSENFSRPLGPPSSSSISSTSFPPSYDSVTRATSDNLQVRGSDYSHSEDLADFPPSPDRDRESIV

Assays:
[1] = system: glutamatergic pyramidal neurons from mouse layer five neocortex; test: Current-clamp recording in brain slices, action-potential firing; type: cell-based; conditions: for effect on action-potential firing, pyramidal neurons: 100 µM carbamazepine; for Cumulative number of action potentials fired by each cell on increasing current injections / WT Cortical pyramidal neurons APs/1s: 100 μM; for Cumulative number of action potentials fired by each cell on increasing current injections: WT cortical pyramidal neurons; for WT Cortical pyramidal neurons APs/1s: individual neurons
Protocol: (§1) Parasagittal cortical brain slices were prepared from> P21 mice using standard procedures (adapted from Tai et al., PNAS 2014). Briefly, the mouse was deeply anaesthetized with isoflurane and decapitated. The brain was removed and placed into chilled artificial cerebrospinal fluid (aCSF) solution containing (in mM): 125 NaCl, 25 NaHCO3, 2.5 KCl, 1.25 NaH2PO4, 2 CaCl2, 2 MgCl2, 10 d-glucose, pH 7.3, osmolarity adjusted to ~306 mOsm using sucrose. All solutions were saturated with 95% O2 and 5% CO2 constantly perfused with 95% O2/5% CO2. Slices with a thickness of 400 µm were prepared using a vibratome (Ted Pella, Inc). Following sectioning, the slices were placed in a holding chamber and incubated in a water bath at 34 °C for 15 min. The brain slices were removed from the water bath and held at room temperature for 60 min prior to recording.
(§2) All experiments involving rodent subjects were performed in accordance with the guidelines of the Canadian Council on Animal Care (CCAC). Following a 60-min incubation at room temperature, a brain slice was selected and placed on the stage of an upright microscope (SliceScope Pro 2000, Scientifica). The slice was constantly perfused with room temperature aCSF, containing 0.1% DMSO as a vehicle control, and oxygenated with 95% O2/5% CO2.The slice was visualized using brightfield microscopy, and a healthy neuron was selected from neocortical layer 5. […] Stimulation was applied in current-clamp mode, and consisted of a series of 1000ms square pulses, beginning at –20 pA and increasing by +20 pA increments (3000ms between pulses).
(§3) The slice was incubated in circulating compound for 10 min before repeating the series of square pulse stimulations. Working stock solutions were prepared in DMSO at a concentration of 20 mM.
(§4) All data analysis was done offline using ClampFit 10.7 (Molecular Devices). Data are presented as a mean ± SEM. For each sweep, the number of evoked APs was counted, and plotted as a function of current injection (beginning with –20 pA). […] Statistical significance was assessed using paired, two-way, student’s t-test applied at each current injection level with significance considered p < 0.05.

[2] = system: fast spiking interneurons; test: as above; type: cell-based, mouse; conditions: for effect on action-potential firing, fast-spiking interneurons: 100 µM carbamazepine; for Fast spiking interneurons APs/1s / Cumulative number of action potentials fired by each cell on increasing current injections: 100 μM; for Fast spiking interneurons APs/1s: individual neurons; for Cumulative number of action potentials fired by each cell on increasing current injections: fast spiking interneurons
Protocol: as §1, §2, §3, §4

hNaV1.5 = target: T1, hNaV1.5 (Homo sapiens, UniProt Q14524); test: Qube 384 automated patch-clamp, inactivated-state inhibition; type: cell-based; conditions: Vh -60 mV, HEK-293
T1 construct: expression vector containing the full-length cDNA coding for specific human and mouse sodium channel α-subunit; expressed in transfected cells
Text: (§5) All of the cell lines tested negative for mycoplasma.
(§6) Inorm(CPD)=(ICPD−Icontrol)/(ITTX−Icontrol).

hNaV1.1 = target: T2, hNaV1.1 (Homo sapiens, UniProt P35498); test: as above; type: cell-based; conditions: Vh -45 mV, HEK-293
T2 construct: expression vector containing the full-length cDNA coding for specific human and mouse sodium channel α-subunit; expressed in transfected cells
Text: as §5, §6

NC(=O)N1c2ccccc2C=Cc2ccccc21 [carbamazepine, Carbamazepine]
effect on action-potential firing, pyramidal neurons [1]: reduced action-potential spiking
effect on action-potential firing, pyramidal neurons ([1]; listed as Carbamazepine): significantly inhibited action-potential firing
Cumulative number of action potentials fired by each cell on increasing current injections ([1]; up to current injected 0 pA): 0
Cumulative number of action potentials fired by each cell on increasing current injections ([1]; up to current injected 20 pA): 0
Cumulative number of action potentials fired by each cell on increasing current injections ([1]; up to current injected 40 pA): 0
Cumulative number of action potentials fired by each cell on increasing current injections ([1]; up to current injected -20 pA): 0
WT Cortical pyramidal neurons APs/1s ([1]; current injected 0 pA): 0 APs/1s
WT Cortical pyramidal neurons APs/1s ([1]; current injected 20 pA): 0 APs/1s
WT Cortical pyramidal neurons APs/1s ([1]; current injected 40 pA): 0 APs/1s
WT Cortical pyramidal neurons APs/1s ([1]; current injected 60 pA): 0 APs/1s and 3 APs/1s and 1 APs/1s (2×)
WT Cortical pyramidal neurons APs/1s ([1]; current injected 80 pA): 2 APs/1s (2×) and 5 APs/1s and 3 APs/1s
WT Cortical pyramidal neurons APs/1s ([1]; current injected 100 pA): 2 APs/1s and 7 APs/1s and 3 APs/1s and 4 APs/1s
WT Cortical pyramidal neurons APs/1s ([1]; current injected 120 pA): 3 APs/1s (2×) and 8 APs/1s and 5 APs/1s
WT Cortical pyramidal neurons APs/1s ([1]; current injected 140 pA): 3 APs/1s (2×) and 10 APs/1s and 5 APs/1s
WT Cortical pyramidal neurons APs/1s ([1]; current injected 160 pA): 4 APs/1s and 11 APs/1s and 3 APs/1s and 5 APs/1s
WT Cortical pyramidal neurons APs/1s ([1]; current injected 180 pA): 3 APs/1s (2×) and 12 APs/1s and 5 APs/1s
WT Cortical pyramidal neurons APs/1s ([1]; current injected 200 pA): 4 APs/1s (2×) and 13 APs/1s and 5 APs/1s
WT Cortical pyramidal neurons APs/1s ([1]; current injected 220 pA): 5 APs/1s (2×) and 13 APs/1s and 4 APs/1s
WT Cortical pyramidal neurons APs/1s ([1]; current injected 240 pA): 4 APs/1s and 14 APs/1s and 3 APs/1s and 5 APs/1s
WT Cortical pyramidal neurons APs/1s ([1]; current injected 260 pA): 5 APs/1s (2×) and 15 APs/1s and 2 APs/1s
WT Cortical pyramidal neurons APs/1s ([1]; current injected 280 pA): 5 APs/1s (2×) and 15 APs/1s and 2 APs/1s
WT Cortical pyramidal neurons APs/1s ([1]; current injected 300 pA): 5 APs/1s (2×) and 16 APs/1s
WT Cortical pyramidal neurons APs/1s ([1]; current injected 320 pA): 4 APs/1s and 16 APs/1s and 5 APs/1s
WT Cortical pyramidal neurons APs/1s ([1]; current injected 340 pA): 5 APs/1s and 16 APs/1s and 4 APs/1s
WT Cortical pyramidal neurons APs/1s ([1]; current injected 360 pA): 15 APs/1s and 5 APs/1s
WT Cortical pyramidal neurons APs/1s ([1]; current injected 380 pA): 15 APs/1s and 5 APs/1s
WT Cortical pyramidal neurons APs/1s ([1]; current injected 400 pA): 14 APs/1s and 5 APs/1s
WT Cortical pyramidal neurons APs/1s ([1]; current injected 420 pA): 14 APs/1s and 4 APs/1s
WT Cortical pyramidal neurons APs/1s ([1]; current injected 440 pA): 11 APs/1s and 4 APs/1s
WT Cortical pyramidal neurons APs/1s ([1]; current injected -20 pA): 0 APs/1s
effect on action-potential firing, fast-spiking interneurons [2]: markedly reduced firing
effect on action-potential firing, fast-spiking interneurons ([2]; listed as Carbamazepine): significantly inhibited action-potential firing
Fast spiking interneurons APs/1s ([2]; 300 pA current injected, listed as CBZ): 26 APs/1s and 30 APs/1s and 6 APs/1s
Fast spiking interneurons APs/1s ([2]; current injected 0 pA): 0 APs/1s
Fast spiking interneurons APs/1s ([2]; current injected 20 pA): 0 APs/1s
Fast spiking interneurons APs/1s ([2]; current injected 40 pA): 0 APs/1s
Fast spiking interneurons APs/1s ([2]; current injected 60 pA): 0 APs/1s
Fast spiking interneurons APs/1s ([2]; current injected 80 pA): 0 APs/1s
Fast spiking interneurons APs/1s ([2]; current injected 100 pA): 0 APs/1s
Fast spiking interneurons APs/1s ([2]; current injected 120 pA): 1 APs/1s (2×) and 0 APs/1s
Fast spiking interneurons APs/1s ([2]; current injected 140 pA): 2 APs/1s (2×) and 1 APs/1s
Fast spiking interneurons APs/1s ([2]; current injected 160 pA): 6 APs/1s (2×) and 1 APs/1s
Fast spiking interneurons APs/1s ([2]; current injected 180 pA): 10 APs/1s and 9 APs/1s and 1 APs/1s
Fast spiking interneurons APs/1s ([2]; current injected 200 pA): 15 APs/1s and 16 APs/1s and 1 APs/1s
Fast spiking interneurons APs/1s ([2]; current injected 220 pA): 15 APs/1s and 17 APs/1s and 2 APs/1s
Fast spiking interneurons APs/1s ([2]; current injected 240 pA): 20 APs/1s and 21 APs/1s and 2 APs/1s
Fast spiking interneurons APs/1s ([2]; current injected 260 pA): 23 APs/1s and 21 APs/1s and 3 APs/1s
Fast spiking interneurons APs/1s ([2]; current injected 280 pA): 26 APs/1s and 24 APs/1s and 3 APs/1s
Fast spiking interneurons APs/1s ([2]; current injected 300 pA): 26 APs/1s and 30 APs/1s and 6 APs/1s
Fast spiking interneurons APs/1s ([2]; current injected 320 pA): 28 APs/1s and 27 APs/1s and 6 APs/1s
Fast spiking interneurons APs/1s ([2]; current injected 340 pA): 28 APs/1s and 32 APs/1s and 7 APs/1s
Fast spiking interneurons APs/1s ([2]; current injected 360 pA): 29 APs/1s and 32 APs/1s and 9 APs/1s
Fast spiking interneurons APs/1s ([2]; current injected 380 pA): 30 APs/1s and 10 APs/1s
Fast spiking interneurons APs/1s ([2]; current injected 400 pA): 27 APs/1s and 9 APs/1s
Fast spiking interneurons APs/1s ([2]; current injected 420 pA): 31 APs/1s and 9 APs/1s
Fast spiking interneurons APs/1s ([2]; current injected 440 pA): 30 APs/1s and 10 APs/1s
Fast spiking interneurons APs/1s ([2]; current injected -20 pA): 0 APs/1s
Cumulative number of action potentials fired by each cell on increasing current injections ([2]; up to current injected 0 pA): 0
Cumulative number of action potentials fired by each cell on increasing current injections ([2]; up to current injected 20 pA): 0
Cumulative number of action potentials fired by each cell on increasing current injections ([2]; up to current injected 40 pA): 0
Cumulative number of action potentials fired by each cell on increasing current injections ([2]; up to current injected 60 pA): 0
Cumulative number of action potentials fired by each cell on increasing current injections ([2]; up to current injected 80 pA): 0
Cumulative number of action potentials fired by each cell on increasing current injections ([2]; up to current injected 100 pA): 0
Cumulative number of action potentials fired by each cell on increasing current injections ([2]; up to current injected -20 pA): 0

Cc1cc(S(=O)(=O)Nc2cscn2)c(F)cc1N(C)[C@H]1CCN(Cc2ccccc2)C1 [NBI-921352]
IC50 (hNaV1.5): > 30 µM
IC50 (hNaV1.1): 39 µM

Where “and” joins values, the source holds several entries; their conditions need not be identical. Equal values may be shown once.
